Test results as given in patent US9650440B2, “Monoclonal antibodies that specifically block biological activity of a tumor antigen” (Morphotek, Inc., priority 2004, dated 2017).

By UniProt entry, the sequences of proteins in these tests, tags left out. Residues count along the entry.
UniProt P15328, 25-234: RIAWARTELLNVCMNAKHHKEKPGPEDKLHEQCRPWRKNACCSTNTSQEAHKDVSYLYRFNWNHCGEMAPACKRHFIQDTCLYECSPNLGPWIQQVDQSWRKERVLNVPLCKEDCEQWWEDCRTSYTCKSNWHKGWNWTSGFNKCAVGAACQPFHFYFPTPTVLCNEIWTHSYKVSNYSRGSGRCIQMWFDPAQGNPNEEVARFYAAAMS

Experiments:
[1] = test system: human ovarian cancer cells; test: ADCC assay, human ovarian cancer cells as target and PBMCs as effector cells; type: cell-based; settings: 200 ng/ml antibody produced in CHO cells; PBMCs as effector cells
Excerpt: The antibodies of the invention preferably induce antibody-dependent cellular cytotoxicity (ADCC) in FR-α bearing cells. ADCC assays are known in the art. The method of the invention enabled successful production of an optimized, humanized anti-FR-α antibody with acceptable antigen binding activity (low nanomolar dissociation constant) and production rates (>10 pg/cell/day).

[2] = target: T1, purified FR-α (Homo sapiens, UniProt P15328); test: Surface plasmon resonance binding of antibody to purified FR-α
T1 construct: The soluble, secreted form of the antigen will be purified from the serum-free culture supernatant of target cells; endogenous in cells
Method: Kinetic and steady-state binding constants between the antibody of the invention and purified FR-α were determined by surface plasmon resonance spectroscopy. On-rate (ka) was determined to be (2.25±0.02) M^−1s^−1, and off-rate (kd) was determined to be (5.02±0.08) s^−1.
Surface plasmon resonance spectroscopy relies on the short range (˜150 nm) interaction of the electrical field (evanescent wave) generated by photons under conditions of total internal reflection (TIR) with electrons (surface plasmons) in a conductive film at the boundary between two media of differing refractive indices, whereby one of the media is a thin gold layer (conductive film) coated with an alkane linker coupled to CM-dextran. The CM-dextran surface, which forms an extended hydrogel in solution, projecting roughly 100-150 nm into the flowcell, may be derivatized further with a ligand of choice by covalent immobilization to the carboxyl groups present on the CM-dextran layer. The angle necessary to allow the evanescent wave to interact with the gold layer will depend on the angle necessary to observe TIR, which in turn depends on the thickness or mass at the surface of the chip. The instrument thus allows for observation of the change in mass at the surface of the chip over time, as would be observed when an analyte which interacts with the immobilized ligand is injected into the flowcell. If injection of analyte is followed by injection of buffer, one can follow both the association (during injection of the analyte) and dissociation phases (during buffer injection) of the binding. Kinetic on-rates (ka) and off-rates (kd), as well as steady-state equilibrium constants (Ka and Kd) can thus be extrapolated.
The soluble, secreted form of the antigen will be purified from the serum-free culture supernatant of target cells by chromatography through Phenyl Sepharose (high sub), followed by ion exchange on S Sepharose Fast Flow. Briefly, culture supernatant containing secreted antigen will be loaded onto the Phenyl Sepharose (high sub) column in the absence of additional salts. […]

[3] = target: FR-α (Homo sapiens, UniProt P15328); test: Western blot with anti-FR-α antibody on nonreducing gel; type: binding; design: lysates prepared from a cell line known to express FR-α; endogenous in cells; host or cells: unnamed FR-α-expressing cell line (lysate); KB cells (secreted soluble FR-α, also after PNGase F); 1205 Lu as negative line
[4] = surface plasmon resonance spectroscopy, purified FR-α

B1: anti-FR-α antibody: humanized anti-FR-α antibody, heavy chain SEQ ID NO:5 and light chain SEQ ID NO:2, expressed in CHO-K1 cells (antibody)
heavy: EVQLVESGGGVVQPGRSLRLSCSASGFTFSGYGLSWVRQAPGKGLEWVAMISSGGSYTYYADSVKGRFAISRDNAKNTLFLQMDSLRPEDTGVYFCARHGDDPAWFAYWGQGTPVTVSSASTKGPSVFPLAPSSKSTSGGTAALGCLVKDYFPEPVTVSWNSGALTSGVHTFPAVLQSSGLYSLSSVVTVPSSSLGTQTYICNVNHKPSNTKVDKKV[human IgG1 Fc not written out]
light: DIQLTQSPSSLSASVGDRVTITCSVSSSISSNNLHWYQQKPGKAPKPWIYGTSNLASGVPSRFSGSGSGTDYTFTISSLQPEDIATYYCQQWSSYPYMYTFGQGTKVEIKRTVAAPSVFIFPPSDEQLKSGTASVVCLLNNFYPREAKVQWKVDNALQSGNSQESVTEQDSKDSTYSLSSTLTLSKADYEKHKVYACEVTHQGLSSPVTKSFNRGEC
In the case of B1, the “lysis of target cells” value [1] is reported as 32%, the “antigen binding activity (dissociation constant)” value ([2]; optimized, humanized anti-FR-α antibody, in words) is reported as “low nanomolar” and the “On-rate (ka)” value [2, 4] is reported as 2.25 ± 0.02 M⁻¹ s⁻¹. For the same molecule, the “off-rate (kd)” value [2, 4] was 5.02 ± 0.08 s⁻¹, the “Western blot detection in lysates of a cell line known to express FR-α” value [3] was “able to detect a single polypeptide of Mr˜35 kD” and the “Western blot detection in lysates of a cell line that does not express the antigen (1205 Lu)” value [3] was “not in lysates of a cell line that does not express the antigen”.
